Measurements published in ChEMBL document CHEMBL2331535, “Discovery and Biological Profiling of Potent and Selective mTOR Inhibitor GDC-0349” (ACS Med Chem Lett, 2013).

Species on record: Homo sapiens
Assay: Selectivity ratio of Ki for PI3K-alpha (unknown origin) to Ki for mTOR (unknown origin)

Ratio Ki: 60
SMILES: CCNC(=O)Nc1ccc(-c2nc3c(c(N4CCOCC4)n2)CCN(c2ncccn2)C3)cc1
